The assay has as its target purified recombinant human Top2α (Homo sapiens, UniProt P11388). Kind of assay: In vitro DNA cleavage assay (Bodley et al.), Top2α. Format: biochemical. On the procedure: Various β-carboline derivatives of compounds of Formula I above were evaluated for their antineoplastic activities and for their ability to preferentially poison Top2 isozymes. These compounds (i.e. those in Table 1 below) were also evaluated for Top2 isozyme-specific poisoning using the in vitro DNA cleavage assay described by Bodley et al. In the studies, purified recombinant human Top2 isozymes were used.
Reactions were terminated with SDS (final 1%) and digested with proteinase K (100 μg/ml at 50° C. for 1 hr). After adding gel loading solution, the reaction mixtures were analyzed by agarose gel electrophoresis. Gel was dried and exposed to x-ray films for visualization.
In certain preferred embodiments, the methods for identifying Top2α preferential poisons include using in vitro DNA cleavage assays. […] In this assay, the ability of various Top2 poisons to induce Top2 isozyme-mediated DNA cleavage of ^32P end-labeled linearized plasmid DNA was assessed. Thus, the relative specificity of various Top2 poisons against Top2 isozymes can be qualitatively determined based on the depletion of band intensities and/or the intensities of bands representing the cleavage products.

Chains of the proteins cited; added tags and fusions are not shown. Lines headed by an entry give the natural chain unless they say otherwise; changes in a name come on top.
UniProt P11388: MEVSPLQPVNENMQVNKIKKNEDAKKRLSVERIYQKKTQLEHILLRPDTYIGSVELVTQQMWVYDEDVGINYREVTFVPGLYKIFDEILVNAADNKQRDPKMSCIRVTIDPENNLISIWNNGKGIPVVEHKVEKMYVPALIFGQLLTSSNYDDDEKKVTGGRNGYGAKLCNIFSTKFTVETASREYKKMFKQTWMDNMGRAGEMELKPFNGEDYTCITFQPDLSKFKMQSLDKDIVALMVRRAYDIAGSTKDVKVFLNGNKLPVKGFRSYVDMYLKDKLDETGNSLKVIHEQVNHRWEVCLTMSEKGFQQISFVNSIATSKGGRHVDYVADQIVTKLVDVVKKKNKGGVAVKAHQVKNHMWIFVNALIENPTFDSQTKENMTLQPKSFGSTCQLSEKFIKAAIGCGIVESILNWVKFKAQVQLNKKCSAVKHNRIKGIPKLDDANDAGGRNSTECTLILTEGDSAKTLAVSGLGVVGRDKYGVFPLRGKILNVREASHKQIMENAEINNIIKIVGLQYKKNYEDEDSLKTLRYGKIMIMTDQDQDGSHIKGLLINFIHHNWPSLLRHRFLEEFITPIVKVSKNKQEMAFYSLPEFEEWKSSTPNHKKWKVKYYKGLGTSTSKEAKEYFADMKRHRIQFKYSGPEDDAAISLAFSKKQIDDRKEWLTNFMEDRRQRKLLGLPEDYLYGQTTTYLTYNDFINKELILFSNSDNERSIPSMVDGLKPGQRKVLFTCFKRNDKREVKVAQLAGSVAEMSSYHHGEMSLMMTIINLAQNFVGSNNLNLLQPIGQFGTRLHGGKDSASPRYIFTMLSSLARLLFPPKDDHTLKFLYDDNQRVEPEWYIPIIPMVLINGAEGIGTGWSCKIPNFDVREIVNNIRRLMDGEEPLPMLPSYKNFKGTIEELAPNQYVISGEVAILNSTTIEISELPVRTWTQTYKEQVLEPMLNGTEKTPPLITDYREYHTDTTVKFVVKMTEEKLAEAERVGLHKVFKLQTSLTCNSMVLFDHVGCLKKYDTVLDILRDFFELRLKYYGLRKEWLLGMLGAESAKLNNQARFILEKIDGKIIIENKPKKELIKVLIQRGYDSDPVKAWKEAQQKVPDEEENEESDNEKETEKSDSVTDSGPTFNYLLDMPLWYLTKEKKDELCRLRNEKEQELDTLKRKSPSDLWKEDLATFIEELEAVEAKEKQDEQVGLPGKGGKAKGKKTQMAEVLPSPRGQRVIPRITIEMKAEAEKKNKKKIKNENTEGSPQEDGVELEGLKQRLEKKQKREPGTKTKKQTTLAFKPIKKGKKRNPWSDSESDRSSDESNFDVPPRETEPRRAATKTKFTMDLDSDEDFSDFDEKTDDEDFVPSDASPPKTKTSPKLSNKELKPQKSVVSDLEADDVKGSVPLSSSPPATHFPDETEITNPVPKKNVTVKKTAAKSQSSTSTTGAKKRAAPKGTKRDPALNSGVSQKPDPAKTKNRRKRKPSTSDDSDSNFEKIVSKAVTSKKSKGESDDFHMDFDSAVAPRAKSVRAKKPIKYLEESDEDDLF

“Also recorded” adds a separate entry of the source.

For `COc1cc([C@@H]2c3cc4c(cc3[C@@H](O[C@@H]3O[C@@H]5CO[C@@H](C)O[C@H]5[C@H](O)[C@H]3O)[C@H]3COC(=O)[C@H]23)OCO4)cc(OC)c1O` [VP16, etoposide], the “preference of poisoning Top2α versus Top2β” value is reported as “non-preferentially; also recorded: equally”.

These data come from patent publication US20140235578A1, “METHODS FOR TREATING NEOPLASIA AND FOR IDENTIFYING COMPOSITIONS USEFUL IN SUCH THERAPY” (priority 2007, published 2014).
